Laboratory results as given in patent US20240316019A1 (Bayer Aktiengesellschaft, priority 2023, published 2024).
Read-outs that look alike come from different tables or passages of the source.

System: patients with acute non-cardioembolic ischemic stroke
Settings: for Primary safety composite: ISTH major and clinically relevant non-major bleeding, % participants / Primary safety composite: ISTH major and clinically relevant non-major bleeding, n participants: while on treatment

CC[C@@H](C(=O)Nc1ccc(C(N)=O)c(F)c1)n1cc(OC)c(-c2cc(Cl)ccc2-n2cc(C(F)(F)F)nn2)cc1=O [Compound A, (4S)-2^4-chloro-4-ethyl-7^3-fluoro-3^5-methoxy-3^2,5-dioxo-14-(trifluoromethyl)-3^2H-6-aza-3(4,1)-pyridina-1(1)-[1,2,3]triazola-2(1,2),7(1)-dibenzenaheptaphane-7^4-carboxamide]
Primary safety composite: ISTH major and clinically relevant non-major bleeding, % participants (10 mg, of 445): 4%
Primary safety composite: ISTH major and clinically relevant non-major bleeding, n participants (10 mg, of 445): 19
Primary safety composite: ISTH major and clinically relevant non-major bleeding, % participants (20 mg, of 446): 3%
Primary safety composite: ISTH major and clinically relevant non-major bleeding, n participants (20 mg, of 446): 14
Primary safety composite: ISTH major and clinically relevant non-major bleeding, % participants (50 mg, of 443): 4%
Primary safety composite: ISTH major and clinically relevant non-major bleeding, n participants (50 mg, of 443): 19
New safety signals when added to antiplatelet therapy (patients with acute non-cardioembolic ischemic stroke associated with atherosclerosis): without causing new safety signals
Primary safety outcome events, dose-response association and increase vs placebo (pooled Compound A groups vs placebo): No dose-response association and no significant increase
